Reference: patent US7294637B2 (Sepracor, Inc., priority 2000, dated 2007)
pEC50, pIC50: −log10 of the molar value.

By UniProt entry, the sequences of proteins in these tests, tags left out.
UniProt P31645, whole entry: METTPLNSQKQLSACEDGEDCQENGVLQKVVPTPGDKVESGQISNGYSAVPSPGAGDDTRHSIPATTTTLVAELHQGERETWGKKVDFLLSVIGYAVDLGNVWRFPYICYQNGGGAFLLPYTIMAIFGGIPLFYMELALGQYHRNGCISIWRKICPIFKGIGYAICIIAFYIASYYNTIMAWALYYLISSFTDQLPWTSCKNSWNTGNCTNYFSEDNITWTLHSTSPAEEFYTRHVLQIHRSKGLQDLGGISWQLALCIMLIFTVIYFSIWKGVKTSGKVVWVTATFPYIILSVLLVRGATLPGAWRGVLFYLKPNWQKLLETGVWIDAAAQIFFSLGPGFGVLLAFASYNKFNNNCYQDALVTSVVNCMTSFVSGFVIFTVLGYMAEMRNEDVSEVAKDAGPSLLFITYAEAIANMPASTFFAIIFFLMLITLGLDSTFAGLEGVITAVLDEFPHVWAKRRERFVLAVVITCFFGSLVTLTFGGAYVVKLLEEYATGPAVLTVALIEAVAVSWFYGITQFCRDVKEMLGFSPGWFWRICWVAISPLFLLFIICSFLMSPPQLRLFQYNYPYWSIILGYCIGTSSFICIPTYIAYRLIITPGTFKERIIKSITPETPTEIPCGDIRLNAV
UniProt P23975, whole entry: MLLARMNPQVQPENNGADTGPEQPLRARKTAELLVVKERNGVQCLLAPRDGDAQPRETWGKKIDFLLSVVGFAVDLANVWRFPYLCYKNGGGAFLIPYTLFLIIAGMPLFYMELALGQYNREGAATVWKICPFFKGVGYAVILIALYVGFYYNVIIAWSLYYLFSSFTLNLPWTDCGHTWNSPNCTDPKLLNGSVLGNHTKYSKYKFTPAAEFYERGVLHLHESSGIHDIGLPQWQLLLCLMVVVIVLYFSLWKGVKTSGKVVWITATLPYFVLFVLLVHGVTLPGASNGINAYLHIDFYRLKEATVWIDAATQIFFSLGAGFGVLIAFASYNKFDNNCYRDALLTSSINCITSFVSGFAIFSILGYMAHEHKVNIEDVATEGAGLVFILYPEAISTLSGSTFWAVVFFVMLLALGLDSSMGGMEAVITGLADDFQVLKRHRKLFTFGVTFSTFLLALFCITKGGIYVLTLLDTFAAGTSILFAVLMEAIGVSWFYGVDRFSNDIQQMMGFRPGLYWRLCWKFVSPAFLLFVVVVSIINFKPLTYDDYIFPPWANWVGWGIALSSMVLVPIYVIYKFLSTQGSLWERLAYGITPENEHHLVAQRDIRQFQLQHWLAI
UniProt Q01959, whole entry: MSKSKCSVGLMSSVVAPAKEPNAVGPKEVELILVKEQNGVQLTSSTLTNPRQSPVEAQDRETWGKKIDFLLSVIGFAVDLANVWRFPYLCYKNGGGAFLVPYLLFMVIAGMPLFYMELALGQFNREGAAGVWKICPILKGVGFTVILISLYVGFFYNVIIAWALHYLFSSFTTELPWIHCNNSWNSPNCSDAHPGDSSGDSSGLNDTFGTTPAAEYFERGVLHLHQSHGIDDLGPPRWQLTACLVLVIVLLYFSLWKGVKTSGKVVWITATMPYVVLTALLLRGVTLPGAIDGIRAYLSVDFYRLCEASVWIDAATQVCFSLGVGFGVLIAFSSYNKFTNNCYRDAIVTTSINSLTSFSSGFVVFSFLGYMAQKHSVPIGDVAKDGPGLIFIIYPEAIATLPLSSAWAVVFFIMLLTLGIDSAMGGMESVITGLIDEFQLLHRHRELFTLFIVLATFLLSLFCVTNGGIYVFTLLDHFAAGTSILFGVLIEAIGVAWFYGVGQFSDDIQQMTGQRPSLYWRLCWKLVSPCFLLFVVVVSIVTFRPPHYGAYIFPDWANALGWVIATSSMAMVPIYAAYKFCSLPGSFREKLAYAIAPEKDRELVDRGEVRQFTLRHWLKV

Key:
serotonin transporter [1] = target: T1, serotonin transporter (Homo sapiens, UniProt P31645); assay: 5-HT uptake: displacement of serotonin ligands in vitro (methods of Gu et al.); assay type: binding; settings: read-out: 5-HT Uptake, Uptake Profile (IC50)
[2] = target: T2, norepinephrine transporter (Homo sapiens, UniProt P23975); assay: NE uptake: displacement of norephinephrine ligands in vitro (methods of Galli et al.); assay type: binding; settings: read-out: NE Uptake, Uptake Profile (IC50)
dopamine transporter = dopamine transporter (Homo sapiens, UniProt Q01959); assay: DA uptake: displacement of dopamine ligands in vitro (methods of Gu et al.); settings: read-out: DA Uptake, Uptake Profile (IC50)
[3] = target: T2, norepinephrine transporter; assay: Functional activity, norephinephrine uptake inhibition in MDCK cell lines; assay type: cell-based; settings: read-out: NE Uptake, Functional Assays (antagonism, EC50)
DAT = DAT (Homo sapiens, UniProt Q01959); settings: read-out: DA Uptake, Functional Assays (antagonism, EC50); hDAT cell line
serotonin transporter [4] = target: T1, serotonin transporter; assay: Functional activity, serotonin uptake inhibition in human HEK-293 cell lines; assay type: cell-based; settings: read-out: 5-HT Uptake, Functional Assays (antagonism, EC50)

Work on `OCC1CCCCN(CC2(c3ccc(Cl)cc3)CCC2)C1` (stereo not drawn) yielded a pIC50 (serotonin transporter [1]) of less than 6.00, a pIC50 [2] of less than 6.00 and a pIC50 (dopamine transporter) greater than 6.00.
`FC(F)(F)c1ccc(OCCC2CCCN(CC3(c4ccc(Cl)cc4)CCC3)C2)cc1` (single isomer, unassigned) [118] gave a pEC50 [3] greater than 7.00, a pIC50 (serotonin transporter [1]) of less than 6.00 and a pEC50 (DAT) greater than 8.00. The pIC50 [2] was greater than 6.00, the pIC50 (dopamine transporter) was greater than 8.00 and the pEC50 (serotonin transporter [4]) was less than 6.00.
`FC(F)(F)c1ccc(OCCC2CCCN(CC3(c4ccc(Cl)cc4)CCC3)C2)cc1` (single isomer, unassigned) [119] showed a pEC50 [3] greater than 7.00, a pIC50 (serotonin transporter [1]) of less than 6.00 and a pEC50 (DAT) greater than 8.00. It also gave a pIC50 [2] greater than 7.00, a pIC50 (dopamine transporter) greater than 8.00 and a pEC50 (serotonin transporter [4]) of less than 6.00.
